# Curated experimental data: properties

Values as listed in the OPERA 2.9 repository of K. Mansouri.

The melting point is given in degrees Celsius. Boiling points are in °C, nominally at 760 mmHg. The octanol-water partition coefficient is given as log10; larger values mean a more lipophilic compound. Solubility in water is on a log10 molar scale (set defined at 25 °C). Vapor pressures (log10 mmHg) refer to near room temperature, 15 to 30 °C; higher is more volatile. fu is the fraction unbound in human plasma, from 0 to 1.

- FC(F)=C(F)OC(F)(F)C(F)(F)C(F)(F)F [Perfluoropropyl trifluorovinyl ether]: logP (octanol/water) 4; log solubility -5.17 (log10 mol/L); log vapor pressure 2.615 (log10 mmHg)
- Cc1cn2c(nc1=O)O[C@@H]1[C@@H](O)[C@H](CO)O[C@@H]12: logP (octanol/water) -1.97; log vapor pressure -5.041 (log10 mmHg)
- c1ccc(-c2noc(-c3cccs3)n2)cc1 [3-Phenyl-5-(2-thienyl)-1,2,4-oxadiazole]: melting point 108.6 °C; logP (octanol/water) 4.13; log solubility -5.265 (log10 mol/L); log vapor pressure -6.235 (log10 mmHg)
- O=C1Cc2ccccc2O1 [(3H)-Benzofuran-2-one]: logP (octanol/water) 1.347; log solubility -1.511 (log10 mol/L); log vapor pressure -3.011 (log10 mmHg)
- CCCOC(C)OCCc1ccccc1 (centres undefined) [[2-(1-Propoxyethoxy)ethyl]benzene]: logP (octanol/water) 4.1; log solubility -3.384 (log10 mol/L); log vapor pressure -2.347 (log10 mmHg)
- C=CC(F)(F)C(F)(F)C(F)(F)C(F)(F)F [3,3,4,4,5,5,6,6,6-Nonafluorohexene]: logP (octanol/water) 4.13; log solubility -4.198 (log10 mol/L); log vapor pressure 2.297 (log10 mmHg)
- Clc1cc(Cl)c(Oc2cc(Cl)c(Cl)c(Cl)c2Cl)cc1Cl [2,2',3,4,4',5,5'-Heptachlorodiphenyl ether]: melting point 89 °C; log solubility -9.5 (log10 mol/L)
- NCC[C@H](O)C(=O)N[C@@H]1C[C@H](N)[C@@H](O[C@H]2O[C@H](CN)CC[C@H]2N)[C@H](O)[C@H]1O[C@H]1O[C@H](CO)[C@@H](O)[C@H](N)[C@H]1O [Arbekacin]: melting point 178 °C; log solubility -1.13 (log10 mol/L); plasma fu 0.92
- Cc1c[nH]c(=O)cc1N [4-Amino-5-methylpyridin-2(1H)-one]: logP (octanol/water) -0.51; log vapor pressure -6.625 (log10 mmHg)
- CC(=O)OCC(C)(C)C=O [2,2-Dimethyl-3-oxopropyl acetate]: melting point -29 °C; logP (octanol/water) 1.36; log vapor pressure -0.029 (log10 mmHg)
- CO[Si](C)(C)OC [Dimethoxydimethylsilane]: logP (octanol/water) -0.36; log vapor pressure 1.813 (log10 mmHg)
- CC(C)(c1ccc(O)cc1)c1ccc(O)cc1 [Bisphenol A]: boiling point 360 °C; log vapor pressure -8.714 (log10 mmHg)
- CC(C)=CCCC(C)C=O (centres undefined) [2,6-Dimethylhept-5-enal]: log solubility -2.448 (log10 mol/L); log vapor pressure 0.154 (log10 mmHg)
- CC(=O)C1CCCCC1=O (centres undefined) [2-Acetyl-1-cyclohexanone]: melting point 26 °C; log solubility -1.369 (log10 mol/L); log vapor pressure -0.932 (log10 mmHg)
- CC(O)CC(C)CCc1ccccc1 (centres undefined) [4-Methyl-6-phenylhexan-2-ol]: boiling point 275.9 °C; logP (octanol/water) 3.37; log solubility -2.803 (log10 mol/L); log vapor pressure -2.9 (log10 mmHg)
- CC(C)(Oc1ccc(CCNC(=O)c2ccc(Cl)cc2)cc1)C(=O)O [Bezafibrate]: log solubility -5.368 (log10 mol/L); plasma fu 0.05
- CNC(=O)c1cc(Oc2ccc(N)cc2)ccn1 [4-(4-Aminophenoxy)-N-methylpyridine-2-carboxamide]: logP (octanol/water) 0.9; log solubility -2.394 (log10 mol/L)
- C=CC(=O)OCCCCCCCCCCCCCCCCCC [Stearyl acrylate]: logP (octanol/water) 6.8; log solubility -7.21 (log10 mol/L); log vapor pressure -5.37 (log10 mmHg)
- CCOCCN [Ethanamine, 2-ethoxy-]: logP (octanol/water) 1.5; log vapor pressure 1.369 (log10 mmHg)

A selection of 2 entries from above:

* c1ccc(-c2noc(-c3cccs3)n2)cc1 [3-Phenyl-5-(2-thienyl)-1,2,4-oxadiazole]: melting point 108.6 °C; logP (octanol/water) 4.13; log solubility -5.265 (log10 mol/L); log vapor pressure -6.235 (log10 mmHg)
* CC(C)(Oc1ccc(CCNC(=O)c2ccc(Cl)cc2)cc1)C(=O)O [Bezafibrate]: log solubility -5.368 (log10 mol/L); plasma fu 0.05

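The OPERA project collected these measurements from public sources as training and test data for property models. A listed value is a point estimate from one report or more. Method, purity and exact conditions of the single measurements are not given. Where a salt, mixture or single isomer is drawn, the source does not say that exactly this form was tested. Some upstream entries may be estimates or bounds without being marked so.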